{"source": "paper PMC10731658", "about": "(Chemical Research in Toxicology, 2023)", "origin": "cited, not measured here", "system": "tabun-induced oxidative stress", "conditions": "postexposure administration; cited from earlier work"}
{"smiles": "NC(=O)c1cc[n+](C/C=C/C[n+]2ccc(C=NO)cc2)cc1.[Br-].[Br-]", "note": "[K203, 4-carbamoyl-1-((2E)-4-(4-((hydroxyimino)methyl)pyridin-1-ium-1-yl)but-2-en-1-yl)pyridin-1-ium dibromide]", "values": [{"measurement": "overall impact in protecting against oxidative stress induced by tabun", "result": "not significant"}]}
